Screening results: PubChem BioAssay, several laboratories
Only some compounds are listed: those with a hit (about 4.2% of all), similar ones and a draw of the others.
UUG fidelity – modulators of yeast start codon fidelity, primary screen, whole organism, S. cerevisiae, single point, plate reader; S. cerevisiae UUG-firefly luciferase reporter, luminescence/redox ratio; activity score, % at 18.7 µM; actives 0.13% (n = 350,000);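 active means replicate mean at a twofold rise or more, about +100% in these data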;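 further: firefly luciferase made from a UUG start codon reports start codon fidelity; reporter light over untreated wells divided by growth signal over untreated wells; some hits fall short of that in this replicate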
NALP1 inh – blocks the NALP1 inflammasome reconstituted in yeast; S. cerevisiae NALP1/ASC/caspase-1 growth, X-gal OD620, 72 h; inhibition, % at 10 µM; hit rate 0.61% among 280,000; in the data active means inhibition mostly above about 24%, no sharp cut-off; inactive means mostly below about 32%
ALR H2O2 inh – blocks human ALR sulfhydryl oxidase activity; inhibition, % (concentration not given with the values); purified ALR, DTT oxidation, H2O2 HRP-luminol luminescence; P55789; 3.8% of 290,000 active;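 active = mean and each replicate at 75% or more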;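 also: stock transfer was 7.5 nL into about 7.5 µL; 0% = neutral wells and 100% = wells with inactivated enzyme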
MC4R antagonist – human MC4R antagonism in cAMP assay. MC4R-expressing cells, MTII-stimulated cAMP, LANCE TR-FRET. inhibition, % at 6.5 µM. hit rate 0.48% among 360,000. P32245;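 active means inhibition above its plate's cutoff, the mean of tested wells on that plate plus 3 SD, cut at about 29% in these data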;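 further: 0% = Melanotan II alone and 100% = Melanotan II plus saturating MCL0020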
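Material: U2OS-MC4R stable cell line | Reagent: Melanotan II challenge after compound preincubation | Doses: One concentration, 6.5 µM nominal | Incubation: 30-min compound preincubation, 1-h Melanotan II challenge, 1-h detection, room temperature | Signal: TR-FRET cAMP assay | Replicates: One well per compound, no replicates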
MC4R barr agon – human MC4R agonism via beta-arrestin; P32245; U2OS MC4R beta-arrestin complementation, luminescence; percent of melanotan II response, DMSO zero; activation, % at 8.9 µM; hit rate 0.98% among 360,000; AID 540308;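 active means activation above a per-plate cutoff, the mean activation of sample wells on that plate plus 3 SD, cut at about 8% in these data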
HDAC3 inhib – inhibitors of human histone deacetylase 3; O15379; recombinant HDAC3, fluorogenic peptide/trypsin coupled, fluorescence; inhibition, % at 8.3 µM; hit rate 0.15% among 320,000; in the data active means inhibition above about 26%, passing the limit was not always enough
* = called active by the depositor; . = not tested or not shown.

SMILES | UUG fidelity | NALP1 inh | ALR H2O2 inh | MC4R antagonist | MC4R barr agon | HDAC3 inhib
Cn1nc([N+](=O)[O-])c(C(C#N)c2nc3ccccc3n2C)c(Cl)c1=O (stereo not given) | . | 44 | 100* | 23 | 0 | 8
Cn1c(-c2ccc([N+](=O)[O-])cc2)nc2ccccc21 | -11 | -1 | -19 | 9 | -1 | 8
CCCOc1ccc(-c2csc(N)n2)cc1[N+](=O)[O-] | . | 41 | 99* | -12 | -1 | 2
COc1ccc(-c2csc(N)n2)cc1F | . | -9 | 96* | 4 | -1 | -2
Nc1nc(-c2ccc(F)cc2)cs1 | -25 | 14 | 39 | 0 | -2 | 7
CCc1ccc(OC)c(-c2csc(N)n2)c1 | . | 15 | 98* | 10 | -1 | 5
COc1ccc(S(=O)(=O)N[C@H]2CC[C@H](CC(=O)O)O[C@@H]2CO)cc1 | -14 | . | . | . | . | .
COCC(=O)Nc1ccc2c(c1)[C@H]1C[C@@H](CC(=O)NC3CCCCC3)O[C@H](CO)[C@H]1O2 | 0 | . | . | . | . | .
COCc1cn(CC[C@H]2CC[C@@H](NC(=O)Cc3cccnc3)[C@H](CO)O2)nn1 | -14 | . | . | . | . | .
CC(C)NC(=O)Nc1ccc2c(c1)CC(=O)N([C@@H](C)CO)C[C@@H](C)[C@@H](CN(C)C(=O)NC(C)C)O2 | -1 | . | . | . | . | .
O=[N+]([O-])c1ccc(/C=C2\CCC(C3=CCCC3)=C2N2CCOCC2)cc1 | . | 24 | 97* | -1 | -2 | 2
CCC(=O)N(C)C[C@H]1Oc2cc(-c3cccc(OC)c3)ccc2S(=O)(=O)N([C@@H](C)CO)C[C@H]1C | 7 | . | . | . | . | .
CC1CCCC(NS(=O)(=O)c2ccc3c(c2)OCCO3)C1C (stereo not given) | 1 | 27* | -4 | -6 | -1 | 1
O=S(=O)(NC1CC2CCC1C2)c1ccc2c(c1)OCCO2 (stereo not given) | 2 | 16 | 0 | 0 | -2 | 3
CCCNC(=O)N[C@H]1CC[C@@H](CC(=O)NC2CCCCC2)O[C@H]1CO | -18 | . | . | . | . | .
COc1ccc(NC(=O)N(C)C[C@H]2OCCCC[C@H](C)Oc3ccc(NC(=O)NC(C)C)cc3C(=O)N([C@@H](C)CO)C[C@@H]2C)cc1 | 16 | . | . | . | . | .
CC(=O)Nc1ccc(SC[C@H](c2ccccc2)N2CCN(CCc3ccccc3)CCC2=O)cc1 | . | 4 | 98* | . | . | -2
COCC(=O)N1C[C@@H](C)[C@H](OC)CN(C)C(=O)c2cc(NC(=O)c3ccc(F)cc3)ccc2OC[C@H]1C | 10 | . | . | . | . | .
Cc1ccc(C(=O)Oc2ccc(-c3nnco3)cc2)o1 | -29 | . | -2 | -4 | -3 | 100*
C[C@H](CO)N1C[C@H](C)[C@@H](CN(C)C(=O)Cc2ccccc2)OCCCC[C@H](C)Oc2ccc(N(C)C)cc2C1=O | 15 | . | . | . | . | .
O=C(O)COc1ccc(/C=C/C(=O)c2ccc3ccccc3c2)cc1 | -17 | 8 | 54 | -6 | -3 | 6
O=C(O)COc1ccc(/C=C/C(=O)c2ccc(C3CCCCC3)cc2)cc1 | -16 | 6 | . | -9 | 8.8* | 12
CNS(=O)(=O)c1ccc(NC(=O)c2cncc(Br)c2)cc1 | -18 | 10 | -3 | 10 | 0 | 0
N#CCC(=O)Nc1ccc(C(=O)Nc2cccnc2)cc1 | -10 | 24 | 100* | -1 | -2 | 2
COc1ccc(NC(=O)c2cccnc2)cc1 | -18 | -16 | -13 | 0 | -1 | -2

4 compounds already listed, ordered by the number in MC4R barr agon, highest first:
SMILES | UUG fidelity | NALP1 inh | ALR H2O2 inh | MC4R antagonist | MC4R barr agon | HDAC3 inhib
O=C(O)COc1ccc(/C=C/C(=O)c2ccc(C3CCCCC3)cc2)cc1 | -16 | 6 | . | -9 | 8.8* | 12
CNS(=O)(=O)c1ccc(NC(=O)c2cncc(Br)c2)cc1 | -18 | 10 | -3 | 10 | 0 | 0
CCc1ccc(OC)c(-c2csc(N)n2)c1 | . | 15 | 98* | 10 | -1 | 5
N#CCC(=O)Nc1ccc(C(=O)Nc2cccnc2)cc1 | -10 | 24 | 100* | -1 | -2 | 2

New compounds follow:
SMILES | UUG fidelity | NALP1 inh | ALR H2O2 inh | MC4R antagonist | MC4R barr agon | HDAC3 inhib
CCN(CC)c1ccc(NC(=O)c2cccnc2)cc1 | -12 | -1 | 99* | -11 | -1 | 3
CCN(CC)c1ccc(NC(=O)c2cncc(Br)c2)cc1 | -6 | 5 | 99* | -7 | 0 | -7
CN1C(=O)c2cc(NC(=O)c3cnccn3)ccc2OC[C@@H]2O[C@H](CC(=O)O)CC[C@H]21 | -4 | . | . | . | . | .
C[C@H](CO)N1C[C@H](C)[C@H](CN(C)C(=O)c2cccc(F)c2)Oc2ncc(-c3cncnc3)cc2C1=O | 2 | . | . | . | . | .
CN1C(=O)c2cc(NC(=O)Cc3ccccc3)ccc2OC[C@@H]2O[C@@H](CC(=O)NCC3CC3)CC[C@H]21 | 7 | . | . | . | . | .
Cn1cnc(S(=O)(=O)N[C@@H]2C=C[C@H](CC(=O)NCC3CCCCC3)O[C@@H]2CO)c1 | 5 | . | . | . | . | .
c1ccc2c(c1)CCCN2Cc1nnnn1CC1CCCO1 (stereo not given) | -4 | 1 | 26 | 5 | 0 | 9
